Assay results from US6607906B1, “Heterologous G protein coupled receptors expressed in yeast, their fusion with G proteins and use thereof in bioassay” (priority 1994, dated 2003).

The chains behind the UniProt entries cited, without tags or fusion partners.
UniProt P30543, whole entry: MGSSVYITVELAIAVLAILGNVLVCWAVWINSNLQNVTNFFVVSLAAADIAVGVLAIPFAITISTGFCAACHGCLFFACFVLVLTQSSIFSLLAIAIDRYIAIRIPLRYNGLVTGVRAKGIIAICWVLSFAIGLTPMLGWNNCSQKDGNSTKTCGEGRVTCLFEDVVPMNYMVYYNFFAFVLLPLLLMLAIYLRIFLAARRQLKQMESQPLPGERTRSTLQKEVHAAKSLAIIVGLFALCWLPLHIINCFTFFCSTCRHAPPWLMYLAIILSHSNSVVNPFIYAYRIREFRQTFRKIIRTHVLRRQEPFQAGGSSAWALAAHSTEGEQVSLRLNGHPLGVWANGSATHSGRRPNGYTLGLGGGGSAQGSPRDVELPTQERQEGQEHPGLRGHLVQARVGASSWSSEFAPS

Target: rat A2a-adenosine receptor (Rattus norvegicus, UniProt P30543)
Assay: Agar plate growth bioassay, yeast expressing A2a-adenosine receptor (LY595)

With “met-enkephalin: an opiate receptor agonist” the growth response was “not observed”.
